Measurements from US12150926B2 (SICHUAN JIUZHANG BIOLOGICAL SCIENCE AND TECHNOLOGY CO., LTD., priority 2018, dated 2024).

Key:
[1] = test system: transplanted tumor in S180 sarcoma-bearing KM mice; assay: In vivo inhibitory effect of chlorogenic acid on S180 sarcoma transplantation in KM mice (Experimental example 1); design: species or system mouse; key: V = 0.52 × L × W² (long × shortest diameter²), in cm³; conditions: 7 d after inoculation; intraperitoneally, once a day, 2 mg/kg; x ± s, n = 10
Description: (§1) KM mice, half male and half female, weighing 17-24 g.
S180 cell lines were mouse sarcoma cells, and suspendedly grew in DH medium, containing 20% calf serum, 1 mmol/L glutamine, 100 U·ml^−1 penicillin, and 100 μg·ml^−1 streptomycin, then cultured in 37° C. 5% CO2, saturated humidity incubator. The medium was changed every 2-3 days for passage.
S180 cells in the logarithmic growth phase were harvested, centrifuged at 1000 rpm for 5 min, washed twice, and the number of viable cells was counted by trypan blue staining. The cells were inoculated into the abdominal cavity of KM mice as soon as possible, and these mice were used as breeding mice. 2) In vivo experiment The ascites was extracted from 7 to 10 days, and the number of cells was adjusted to (about 1×10^6 cells) after dilution. The cell suspension in ascites was inoculated subcutaneously in the axillary of the left forelimb of the mice at 0.2 ml/animal.
(§2) Negative group: intraperitoneally injected, once a day, receiving an equal volume of normal saline. On the 5th day after inoculation, the tumor volume was measured (V=0.52×L (the long diameter of the transplanted tumor)×W^2 (the shortest diameter of the transplanted tumor)), and the mice were weighed every three days. […] The mice were sacrificed by cervical vertebra luxation and weighed, the tumor was removed, and the tumor inhibitory rate was calculated. […]

[2] = test system: transplanted tumor in S180 sarcoma-bearing KM mice; assay: In vivo inhibitory effect of chlorogenic acid composition on S180 sarcoma transplantation in KM mice (Experimental example 2); design: species or system mouse; key: tumor volume V=0.52×L×W² (long × shortest diameter²); conditions: time after inoculation printed 94; intraperitoneally, once a day, 2 mg/kg; x ± s, n = 10
Description: S180 sarcoma transplantation in KM mice
as §1
S180 cell lines were mouse sarcoma cells, and suspendedly grew in DH medium, containing 20% calf serum, 1 mmol/L glutamine, 100 U·ml^−1 penicillin, and 100 μg·ml^−1 streptomycin, then cultured in 37° C., 5% CO2, saturated humidity incubator. The medium was changed every 2-3 days for passage.
S180 cells in the logarithmic growth phase were harvested, centrifuged at 1000 rpm for 5 min, washed twice, and the number of viable cells was counted by trypan blue staining. The cells were inoculated into the abdominal cavity of KM mice as soon as possible, and these mice were used as breeding mice.
The ascites was extracted from 7 to 10 days, and the number of cells was adjusted to (about 1×10^6 cells) after dilution. The cell suspension in ascites was inoculated subcutaneously in the axillary of the left forelimb of the mice at 0.2 ml/animal. […] Coumaroylquinic acid group: intraperitoneally injected, once a day, at a dose of 30 mg·kg^−1. […]
as §2, with “On” for “Negative group: intraperitoneally injected, once a day, receiving an equal volume of normal saline. On”

COc1cccc2c1C(=O)c1c(O)c3c(c(O)c1C2=O)C[C@@](O)(C(=O)CO)C[C@@H]3O[C@H]1C[C@H](N)[C@H](O)[C@H](C)O1 [ADM, adriamycin, reference compound]
growth volume of transplanted tumor [1]: 0.148 ± 0.066 | growth volume of transplanted tumor [2]: 0.231 ± 0.053
